Measured values as given in paper PMC4993455 (PLoS ONE, 2016).

Target: T1, recombinant human methionine adenosyltransferase α2 (MATα2) (human, UniProt P31153 1-395)
T1 construct: human MATα2, pT7.7-MAT2A including the human MAT2A ORF; also called pT7.7-MAT2A; MATα2 homo-oligomers; source: extracts also named for the pull-down
Assay: pull-down; Glutathione-Sepharose loaded with GST-PDRG1 or truncated forms and washed; incubated 1 hour at 4°C with recombinant MATα2 or MATβ alone (purified, 100 μg; extracts also named in the methods) plus excess GST extract; blots with anti-MATα2 and anti-MATβ
Conditions: both partners purified

binding result: binds
B1: GST-PDRG1 (natural protein)
chain: not shown
notes: 9 amino acid linker between GST and PDRG1; rat PDRG1, full ORF (402 bp) in pGEX-5X-1; also called pGEX-PDRG1; tagged-PDRG1; source: E. coli BL21(DE3) Codon Plus; soluble extract loaded on Glutathione-Sepharose (pull-down); purified on Glutathione-Sepharose 4B, eluted with 20 mM GSH (gel filtration, activity); not shown: GST, N-terminal, kept
